Publication PMC6419574 (Bioorganic & Medicinal Chemistry Letters, 2019)

Target: fascin (Homo sapiens, UniProt Q16658)

Row | Structure (SMILES) | improvement of fascin affinity over truncated compound 25 | weaker binding than the parent isoquinolinone | increase in binding affinity compared to 3
1 | Cn1cc(NC(=O)c2cn(Cc3ccc(Cl)c(Cl)c3)c(=O)c3cn[nH]c23)cn1 [Compound 19, 5-(3,4-dichlorobenzyl)-N-(1-methyl-1H-pyrazol-4-yl)-4-oxo-4,5-dihydro-1H-pyrazolo[4,3-c]pyridine-7-carboxamide] | > 50 fold | 7 fold | 
2 | Cn1cc(NC(=O)c2cn(Cc3ccc(F)cc3)c(=O)c3ccccc23)cn1 [Compound 4, 2-(4-fluorobenzyl)-N-(1-methyl-1H-pyrazol-4-yl)-1-oxo-1,2-dihydroisoquinoline-4-carboxamide] |  |  | ≈ 14 fold
